Measurements taken from PMC4488387 (Nature methods, 2015).

Target: Nluc-AT1 (Homo sapiens, UniProt P30556)
Assay: NanoBRET competition binding with TAMRA-AngII, HEK293FT cells
Conditions: 1 μM TAMRA-AngII; compared with angiotensin II and candesartan

- relative affinity in competition with TAMRA-AngII: highest affinity
SMILES: CCCc1nc(C(C)(C)O)c(C(=O)O)n1Cc1ccc(-c2ccccc2-c2nnn[nH]2)cc1 [olmesartan]
